Measurements: patent US10227346B2, “Methyl- and trifluoromethyl-substituted pyrrolopyridine modulators of RORC2 and methods of use therof” (Pfizer Inc., priority 2014, dated 2019)

tested on: IL-17 production from human Th17 cells; experiment: IL-17 production from human Th17 cells; type: cell-based; conditions: CD4+ T, 144 h;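 also: purified human CD4+ T cells activated with anti-CD3 plus anti-CD28 and a Th17-inducing cytokine cocktail, with compound at serial concentrations versus no compound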

**Q.** `CC(C)C(=O)N1CC[C@@H](c2cn(C)c3ncc(NC(=O)c4cccc(C#N)c4)c(C(F)(F)F)c23)C[C@@H]1C` [Example 95, 3-cyano-N-(3-((2S,4R)-1-isobutyryl-2-methylpiperidin-4-yl)-1-methyl-4-(trifluoromethyl)-1H-pyrrolo[2,3-b]pyridin-5-yl)benzamide] was tested. Which IC50 did it give?
**A.** 5.7 nM

**Q.** How did the IC50 turn out when `Cc1c(NC(=O)c2cccc(C#N)c2)cnc2c1c(C1CCN(C(=O)C(C)C)C3(CC3)C1)cn2C` (stereo not drawn) [Example 96, 3-cyano-N-(3-(4-isobutyryl-4-azaspiro[2.5]octan-7-yl)-1,4-dimethyl-1H-pyrrolo[2,3-b]pyridin-5-yl)benzamide] was run?
**A.** 46 nM

**Q.** `COc1ccc(C(=O)Nc2cnc3c(c([C@@H]4CCN(C(=O)C(C)C)C[C@@H]4C)cn3C)c2C)cc1C#N` [Example 112, 3-cyano-N-(3-((3R,4R)-1-isobutyryl-3-methylpiperidin-4-yl)-1,4-dimethyl-1H-pyrrolo[2,3-b]pyridin-5-yl)-4-methoxybenzamide] was tested. Which IC50 did it give?
**A.** 36 nM
